Data from patent publication US20070004803A1, “Compounds and methods for use in treating neoplasia and cancer based upon inhibitors of isoprenylcysteine methyltransferase” (Purdue Research Foundation, priority 2003, published 2007).

Target: T1, Saccharomyces cerevisiae Icmt (Saccharomyces cerevisiae, UniProt P32584)
T1 construct: A 734 bp EagI-SacII fragment, which contained the gene STE14, was amplified from pSM187; made in house; host or cells: Saccharomyces cerevisiae strain CH2704 (plasmid pCHH10m3N-STE14 in the Ste14p-lacking strain SM1188); membrane fraction
T1 sequence (P32584 1-239): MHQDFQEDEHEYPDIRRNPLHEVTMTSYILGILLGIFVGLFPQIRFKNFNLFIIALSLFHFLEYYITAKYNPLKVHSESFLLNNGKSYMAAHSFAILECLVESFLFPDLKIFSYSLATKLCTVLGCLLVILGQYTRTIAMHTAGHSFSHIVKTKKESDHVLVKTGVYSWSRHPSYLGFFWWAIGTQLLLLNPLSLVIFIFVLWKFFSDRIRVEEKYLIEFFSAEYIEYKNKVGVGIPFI
Assay: In vitro vapor diffusion methyltransferase assay, AFC analogues as substrates
Format: biochemical
Settings: Relative velocity (compared to AFC) at 125 μM; substrate ability
Method: Previous studies in this laboratory have focused on the isoprenoid substrate specificity of FTase. We have discovered analogues that are effective alternative substrates, and compounds that are potent inhibitors. […] In the initial study, six isoprenoid-modified analogues (2-7, Chart 1, below) of the minimal Icmt substrate AFC 1 were prepared and evaluated as substrates and as inhibitors of the enzyme. These isoprenoid moieties were chosen in part because the corresponding FPP analogues are alternative substrates for FTase, and can thus be readily incorporated into peptides and proteins. The assays were performed using overexpressed, reconstituted recombinant Saccharomyces cerevisiae Icmt.
Isolation of Membrane Fraction from Yeast Cells—Mid-log phase yeast cells (2.0-3.0 OD600/mL), grown in SC-URA, media, were harvested by centrifugation at 3500×g for 10 minutes at 4° C., washed with 10 mM NaN3, and resuspended in lysis buffer (0.3 M sorbitol, 10 mM Tris-HCl pH 7.5, 0.1 M NaCl, 5 mM MgCl2, 1% aprotinin, 10 μg/mL leupeptin, 10 μg/in L pepstatin A, 10 μg/mL chymostatin, 10 μg/mL bestatin, 1 mM dithiothreitol, and 2 mM AEBSF) to a final concentration of 800 OD600/mL. After a 15 min incubation on ice, the cells were frozen and thawed twice in liquid N2. […] Protein samples were analyzed by immunoblot analysis and in vitro vapor diffusion methyltransferase assay as described elsewhere. […]

## CC(=O)N[C@@H](CSC/C=C(\C)CCc1ccc(-c2ccccc2)cc1)C(=O)O [Compound 7, N-Acetyl-S-(3-methyl-5-(4-phenyl)phenylpent-2E-en-1-yl)-L-cysteine]
  Icmt krel: 10.7
